This is an account of results in ChEMBL document CHEMBL2176977 (J Med Chem, 2012).

SMILES strings stand for the structures. Activity calls are given as the source filed them. The calls are words filed in the database; no cut-off is given here.

The species entered for assay [1] is Cavia porcellus. Description: Displacement of [3H]Cl-DPDPE from DOR in guinea pig vas deferens.
The species entered for assay [2] is Cavia porcellus. Description: Partial agonist activity at KOR in guinea pig ileum assessed as inhibition of electrically-stimulated twitch in presence of norBNI.
The species entered for assay [3] is Cavia porcellus. Put plainly: Irreversible partial agonist activity at KOR in guinea pig ileum assessed as inhibition of electrically-stimulated twitch.
In assay [4] the test system is Rhesus monkey. Description: Reduction in morphine dependence in nonwithdrawn rhesus monkey model assessed as attenuation of naloxone-induced naloxone-precipitated withdrawal effect at 2 mg/kg. The settings on record: Macaca mulatta.

As for `COC(=O)/C=C/C(=O)O[C@@]12CCC(=O)[C@@H]3Oc4c(O)ccc5c4[C@@]31CCN(CC1CC1)[C@@H]2C5`, in assay [1], the Ke is 6.84 nM. Also, the inhibition result in assay [2] was “inactive”.
As to `COC(=O)CCC(=O)N[C@@]12CCC(=O)[C@@H]3Oc4c(O)ccc5c4[C@@]31CCN(CC1CC1)[C@@H]2C5`, the Ke in assay [1] was determined as 3.89 nM.
Take `COC(=O)/C=C/C(=O)NC[C@H]1C[C@@]23CC[C@]1(OC)[C@@H]1Oc4c(O)ccc5c4[C@@]12CCN(CC1CC1)[C@@H]3C5`: the Ke in assay [1] came to 1.25 nM. Also, the inhibition result in assay [2] and in assay [3] was “Active” each time.
Consider `O=C(/C=C/c1ccccc1)O[C@@]12CCC(=O)[C@@H]3Oc4c(O)ccc5c4[C@@]31CCN(CC1CC1)[C@@H]2C5`, for which the Ke in assay [1] was 0.25 nM.
As to `COC(=O)/C=C/C(=O)N[C@@]12CCC(=O)[C@@H]3Oc4c(O)ccc5c4[C@@]31CCN(CC1CC1)[C@@H]2C5`, in assay [4], the outcome was inactive.
In turn, `CO[C@]12CC[C@@]3(C[C@@H]1NC(=O)/C=C/c1ccccc1)[C@H]1Cc4ccc(O)c5c4[C@@]3(CCN1CC1CC1)[C@H]2O5` yielded a Ke in assay [1] of 0.94 nM.
The same measure, in the same setting: as for `CO[C@]12CC[C@@]3(C[C@@H]1CNC(=O)/C=C/c1ccccc1)[C@H]1Cc4ccc(O)c5c4[C@@]3(CCN1CC1CC1)[C@H]2O5`, the figure is 0.044 nM; as for `COC(=O)/C=C/C(=O)N[C@H]1C[C@@]23CC[C@]1(OC)[C@@H]1Oc4c(O)ccc5c4[C@@]12CCN(CC1CC1)[C@@H]3C5`, 6.2 nM.
